These results are taken from US20260384421A1, “NOVEL COMPOUNDS THAT CAN BE USED AS THERAPEUTIC AGENTS” (published 2026).

One assay has as its system HeLa cells. Kind of assay: alamarBlue proliferation assay with HeLa cells. The note with it: read-out: Activity on HeLa (IC50), day 5. The source says: These hyperproliferative processes can be benign or malignant and include hyperplasia, neoplasia, cancer and pre-cancerous lesions, and metastases. The antiproliferative activities of compounds falling under general formula (I) were investigated on human primary epidermal keratinocytes (HPEK) and human, murine and canine cell lines derived from hyperproliferative tissue or different cancer types, including MDA-MB-231, ZR-75-30, HCC-1395, HCC-1937, and T-47D all originating from cancer of the breast, JURKAT, RPMI-8402, LOUCY, TANQUE, REC-1, HL-60, NB-4 all originating from different types of blood cancer including lymphoma and leukemia of T-cells, B-cells and myeloid cells, TT originating from cancer of the neuroendocrine system, HeLa originating from cancer of the cervix, 23132/87, SW-948, and HCT-116 all originating from cancer of the gastrointestinal tract including stomach and colon, BHY originating from cancer of the mucosal epithelium, A-431 originating from cancer of the skin, HEP-G2 originating from cancer of the liver, NCI-H460 and A-549 both originating from cancer of the lung, PANC-1 originating from cancer of the pancreas, U-87 MG originating from cancer of the brain, A-375 and RVH-421 both originating from cancer of melanocytes, SW-1353 originating from cancer of bone-derived chondrocytes, C2C12 a mouse cell line originating from hyperproliferative muscle progenitor cells, LL/2 a mouse cell line originating from cancer of the lung, CF21.T a dog cell line originating from cancer of the connective tissue. To this end, according cells were seeded into 96-well plates (CORNING #3598) suitable for fluorescence assays at following initial cell numbers: 1000 cells per well for HPEK; 3000 cells per well for MDA-MB-231, 8000 cells per well for ZR-75-30, 1500 cells per well for HCC-1395, 1500 cells per well for HCC-1937, 3000 cells per well for T-47D, 1500 cells per well for JURKAT, 5000 cells per well for RPMI-8402, 9000 cells per well for LOUCY, 1500 cells per well for TANQUE, 9000 cells per well for REC-1, 1000 cells per well for HL-60, 1000 cells per well for NB-4, 9000 cells per well for TT, 2000 cells per well for HeLa, 2000 cells per well for 23132/87, 9000 cells per well for SW-948, 700 cells per well for HCT-116, 1500 cells per well for BHY, 700 cells per well for A-431, 1500 cells per well for HEP-G2, 500 cells per well for NCI-H460, 1000 cells per well for A-549, 1500 cells per well for PANC-1, 2500 cells per well for U-87 MG, 700 cells per well for A-375, 1500 cells per well for RVH-421, 2000 cells per well for SW-1353, 500 cells per well for C2C12, 500 cells per well for LL/2, and 3000 cells per well for CF21.T. In a volume of 90 μL per well of culture medium the cells were treated with compounds at indicated final concentrations by adding 10 μL per well of 10× compound working solutions from 1:100 pre-diluted 1000× compound DMSO stock-solutions in H2O (Water For Injection, WFI, Fisher Scientific, Gibco™ #A12873) or with the empty carrier DMSO (AppliChem, #A3672) at 0.1% v/v as control yielding a final volume of 100 μL per well. At day 5 after starting the treatments the cells were subjected to the alamarBlue® Proliferation Assay (Bio-Rad Serotec GmbH, BUF012B) according to the protocol of the manufacturer. The readout was taken with a multi-well plate-reader (Tecan Spark®) in the fluorescence mode with applying a filter for excitation at 560 nm (band width 10 nm) and for emission at 590 nm (band width 10 nm). […]
Background: The colour change of resazurin is a common sign of viable cells or microbes.

For the next assay, the system named is T-47D cells. Kind of assay: alamarBlue proliferation assay with T-47D cells. The note with it: read-out: Activity on T-47D (IC50), day 5.
The next assay deals with RPMI-8402 cells. Kind of assay: alamarBlue proliferation assay with RPMI-8402 cells. The note with it: read-out: Activity on RPMI-8402 (IC50), day 5. The source says:
(§1) These hyperproliferative processes can be benign or malignant and include hyperplasia, neoplasia, cancer and pre-cancerous lesions, and metastases. […] The readout was taken with a multi-well plate-reader (Tecan Spark®) in the fluorescence mode with applying a filter for excitation at 560 nm (band width 10 nm) and for emission at 590 nm (band width 10 nm). […]

The next assay concerns MDA-MB-231 cells. Kind of assay: alamarBlue proliferation assay with MDA-MB-231 cells (glucose-free Leibovitz's L-15 medium). The note with it: read-out: Activity on MDA-MB-231 (IC50); glucose-free Leibovitz's L-15, 10% FBS; day 5; alamarBlue.
The test system of the next assay is A-431 cells. Kind of assay: alamarBlue proliferation assay with A-431 cells. The note with it: read-out: Activity on A-431: IC50, DMEM medium, 10% FBS.
A further assay deals with HCC-1937 cells. Briefly: alamarBlue proliferation assay with HCC-1937 cells. The note with it: read-out: Activity on HCC-1937 (IC50), day 5.
Text: as §1

The subject of another assay is LOUCY cells. Briefly: alamarBlue proliferation assay with LOUCY cells. The note with it: read-out: Activity on LOUCY (IC50), day 5. How it is done: These hyperproliferative processes can be benign or malignant and include hyperplasia, neoplasia, cancer and pre-cancerous lesions, and metastases. […] To this end, according cells were seeded into 96-well plates (CORNING #3598) suitable for fluorescence assays at following initial cell numbers: 1000 cells per well for HPEK; 3000 cells per well for MDA-MB-231, 8000 cells per well for ZR-75-30, 1500 cells per well for HCC-1395, 1500 cells per well for HCC-1937, 3000 cells per well for T-47D, 1500 cells per well for JURKAT, 5000 cells per well for RPMI-8402, 9000 cells per well for LOUCY, 1500 cells per well for TANQUE, 9000 cells per well for REC-1, 1000 cells per well for HL-60, 1000 cells per well for NB-4, 9000 cells per well for TT, 2000 cells per well for HeLa, 2000 cells per well for 23132/87, 9000 cells per well for SW-948, 700 cells per well for HCT-116, 1500 cells per well for BHY, 700 cells per well for A-431, 1500 cells per well for HEP-G2, 500 cells per well for NCI-H460, 1000 cells per well for A-549, 1500 cells per well for PANC-1, 2500 cells per well for U-87 MG, 700 cells per well for A-375, 1500 cells per well for RVH-421, 2000 cells per well for SW-1353, 500 cells per well for C2C12, 500 cells per well for LL/2, and 3000 cells per well for CF21.T. In a volume of 90 μL per well of culture medium the cells were treated with compounds at indicated final concentrations by adding 10 μL per well of 10× compound working solutions from 1:100 pre-diluted 1000× compound DMSO stock-solutions in H2O (Water For Injection, WFI, Fisher Scientific, Gibco™ #A12873) or with the empty carrier DMSO (AppliChem, #A3672) at 0.1% v/v as control yielding a final volume of 100 μL per well. […] The readout was taken with a multi-well plate-reader (Tecan Spark®) in the fluorescence mode with applying a filter for excitation at 560 nm (band width 10 nm) and for emission at 590 nm (band width 10 nm). […]

For another assay, the system named is HEP-G2 cells. Briefly: alamarBlue proliferation assay with HEP-G2 cells. The note with it: read-out: Activity on HEP-G2: IC50, RPMI 1640 medium, 10% FBS.

By IC50 is commonly meant the point on the concentration scale where inhibition reaches its midpoint. Consider `C#CCN1CCN(C(=O)c2ccc(Oc3ccc(C4CCC5(CC4)OCCO5)cc3C=O)cc2)CC1`, for which the IC50 with HeLa cells is at most 1 µM; in the assay on T-47D cells it was at most 1 µM; with RPMI-8402 cells, at most 1 µM; in the assay on MDA-MB-231 cells, at most 5 µM; in the assay with A-431 cells it was at most 5 µM; in the assay on HCC-1937 cells it was at most 5 µM. Besides, the IC50 in the assay with LOUCY cells is at most 0.2 µM; in the assay with HEP-G2 cells it was at most 5 µM.
